Measured values from ChEMBL document CHEMBL1240345, “Zebrafish chemical screening reveals an inhibitor of Dusp6 that expands cardiac cell lineages” (Nat Chem Biol, 2009).
Active and inactive are the calls of the source.

Amino acid sequences for entries named in this document (tags omitted). A change or cut given only in a name is not applied to a line headed by its entry.
UniProt P51452: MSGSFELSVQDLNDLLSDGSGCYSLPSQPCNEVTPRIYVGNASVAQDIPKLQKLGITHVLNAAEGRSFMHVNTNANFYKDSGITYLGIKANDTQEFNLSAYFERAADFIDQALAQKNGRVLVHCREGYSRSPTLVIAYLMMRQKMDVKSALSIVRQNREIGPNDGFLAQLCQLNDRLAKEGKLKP

Experiments:
Details in all cases: 100 uM
[1] = molecular target: T1, Tyrosine-protein phosphatase non-receptor type 1 (Homo sapiens) (UniProt P18031)
T1 sequence (whole entry): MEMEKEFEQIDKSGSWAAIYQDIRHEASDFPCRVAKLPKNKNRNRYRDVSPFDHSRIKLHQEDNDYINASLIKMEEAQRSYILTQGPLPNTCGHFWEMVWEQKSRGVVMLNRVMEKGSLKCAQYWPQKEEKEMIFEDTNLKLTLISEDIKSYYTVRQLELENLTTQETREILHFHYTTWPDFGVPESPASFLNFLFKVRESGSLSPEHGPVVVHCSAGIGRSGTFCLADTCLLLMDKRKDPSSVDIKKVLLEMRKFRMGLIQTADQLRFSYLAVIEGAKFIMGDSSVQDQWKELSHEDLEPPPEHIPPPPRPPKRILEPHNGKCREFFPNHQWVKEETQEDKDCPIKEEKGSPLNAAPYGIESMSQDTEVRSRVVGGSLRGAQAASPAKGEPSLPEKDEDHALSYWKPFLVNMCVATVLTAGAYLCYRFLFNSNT

[2] = molecular target: T2, M-phase inducer phosphatase 2 (Homo sapiens) (UniProt P30305)
T2 sequence (whole entry): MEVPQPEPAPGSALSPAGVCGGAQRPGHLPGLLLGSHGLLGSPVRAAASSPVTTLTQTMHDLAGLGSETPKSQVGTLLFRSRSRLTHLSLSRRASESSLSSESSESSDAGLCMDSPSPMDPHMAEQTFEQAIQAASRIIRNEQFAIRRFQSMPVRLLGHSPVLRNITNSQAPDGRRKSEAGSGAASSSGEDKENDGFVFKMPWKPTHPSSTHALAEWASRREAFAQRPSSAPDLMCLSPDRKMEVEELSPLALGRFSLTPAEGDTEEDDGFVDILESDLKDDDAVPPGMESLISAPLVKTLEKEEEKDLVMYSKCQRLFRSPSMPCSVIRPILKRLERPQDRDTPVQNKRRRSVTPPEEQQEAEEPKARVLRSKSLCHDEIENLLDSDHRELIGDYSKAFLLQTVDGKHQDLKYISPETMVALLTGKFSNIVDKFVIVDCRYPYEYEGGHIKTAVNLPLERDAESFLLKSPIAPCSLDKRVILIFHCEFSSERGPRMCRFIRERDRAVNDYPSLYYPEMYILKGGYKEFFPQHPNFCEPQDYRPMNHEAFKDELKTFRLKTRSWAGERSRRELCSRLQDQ

[3] = molecular target: Dual specificity protein phosphatase 3 (Homo sapiens, UniProt P51452)

Measured: inhibition

O=C1/C(=C/c2ccccc2)C(NC2CCCCC2)c2ccccc21 (stereo not drawn)
inactive: [1] | [2] | [3]
